Data taken from patent US6417178B1, “Amyloid binding nitrogen-linked compounds for the antemortem diagnosis of alzheimer's disease, in vivo imaging and prevention of amyloid deposits” (University of Pittsburgh, priority 1994, dated 2002).

How the values were obtained:
[1] = test system: control brain homogenates; assay: [14C]CG binding to control brain homogenates; design: species or system human; conditions: average CBR ±SEM
[2] = female, Swiss-Webster, mouse, in vivo, iv, 15 min
AD brain homogenates = assay: [14C]CG binding to AD brain homogenates; conditions: average CBR ±SEM, high- and low-plaque AD brains combined

With `O=C(O)c1cc(N=Nc2ccc(-c3ccc(N=Nc4ccc(O)c(C(=O)O)c4)cc3)cc2)ccc1O` [Chrysamine G, 4,4′-bis(3-carboxy-4-hydroxyphenylazo)-biphenyl] the “total binding as a ratio to cerebellum, Control (CBR)” value ([1]; Frontal Pole) was 0.87 ± .04 (n = 6), the “total binding as a ratio to cerebellum, Control (CBR)” value ([1]; Head of Caudate) was 0.95 ± .04 (n = 4) and the “total binding as a ratio to cerebellum, Control (CBR)” value ([1]; Inferior Parietal) was 0.90 ± .08 (n = 8). For the same compound, the “total binding as a ratio to cerebellum, Control (CBR)” value ([1]; Occipital) was 0.77 ± .13 (n = 8), the “total binding as a ratio to cerebellum, Control (CBR)” value ([1]; Superior Temporal) was 0.86 ± .08 (n = 8) and the “total binding as a ratio to cerebellum, Control (CBR)” value ([1]; Superior/Middle Frontal) was 0.73 ± .02 (n = 8). For the same compound, the brain/kidney ratio [2] was ~0.5, the “total binding as a ratio to cerebellum, AD (CBR)” value (AD brain homogenates; Frontal Pole) was 1.87 ± .25 (n = 10) and the “total binding as a ratio to cerebellum, AD (CBR)” value (AD brain homogenates; Head of Caudate) was 1.76 ± .31 (n = 7). For the same compound, the “total binding as a ratio to cerebellum, AD (CBR)” value (AD brain homogenates; Inferior Parietal) was 1.93 ± .20 (n = 11), the “total binding as a ratio to cerebellum, AD (CBR)” value (AD brain homogenates; Occipital) was 1.44 ± .20 (n = 11) and the “total binding as a ratio to cerebellum, AD (CBR)” value (AD brain homogenates; Superior Temporal) was 1.63 ± .17 (n = 11). The “total binding as a ratio to cerebellum, AD (CBR)” value (AD brain homogenates; Superior/Middle Frontal) was 1.84 ± .18 (n = 11).
